Target: T1, Kinesin-like protein KIF11 (Homo sapiens, UniProt P52732)
T1 sequence (P52732 whole entry): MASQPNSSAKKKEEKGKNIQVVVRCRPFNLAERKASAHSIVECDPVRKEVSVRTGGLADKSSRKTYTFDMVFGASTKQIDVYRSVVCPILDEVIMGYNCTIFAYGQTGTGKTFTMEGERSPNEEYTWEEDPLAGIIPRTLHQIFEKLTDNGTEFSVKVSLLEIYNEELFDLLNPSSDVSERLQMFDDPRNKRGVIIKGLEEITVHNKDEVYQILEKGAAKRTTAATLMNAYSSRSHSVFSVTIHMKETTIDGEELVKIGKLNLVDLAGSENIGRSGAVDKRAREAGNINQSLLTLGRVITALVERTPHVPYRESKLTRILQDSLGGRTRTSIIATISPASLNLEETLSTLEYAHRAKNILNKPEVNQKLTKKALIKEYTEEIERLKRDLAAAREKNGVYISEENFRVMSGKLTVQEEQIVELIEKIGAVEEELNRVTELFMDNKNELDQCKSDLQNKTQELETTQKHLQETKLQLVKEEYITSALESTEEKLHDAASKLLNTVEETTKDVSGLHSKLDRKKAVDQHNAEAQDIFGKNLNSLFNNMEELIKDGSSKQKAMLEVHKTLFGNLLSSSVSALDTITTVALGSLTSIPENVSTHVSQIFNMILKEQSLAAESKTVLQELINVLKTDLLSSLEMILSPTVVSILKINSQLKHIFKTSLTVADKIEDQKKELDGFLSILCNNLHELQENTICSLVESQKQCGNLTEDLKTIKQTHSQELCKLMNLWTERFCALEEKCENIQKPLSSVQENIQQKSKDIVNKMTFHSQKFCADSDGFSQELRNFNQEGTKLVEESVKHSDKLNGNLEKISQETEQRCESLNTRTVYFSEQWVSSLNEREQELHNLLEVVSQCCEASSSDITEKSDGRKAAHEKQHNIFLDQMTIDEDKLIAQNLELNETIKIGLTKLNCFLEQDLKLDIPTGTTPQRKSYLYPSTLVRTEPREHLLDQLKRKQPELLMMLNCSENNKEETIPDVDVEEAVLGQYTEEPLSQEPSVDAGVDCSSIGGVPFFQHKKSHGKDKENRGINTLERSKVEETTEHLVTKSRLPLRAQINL
Experiment: Inhibition of Eg5 ATPase activity expressed in Escherichia coli after 12 hrs
Assay type: functional
Outline: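 Basal (no microtubules) steady-state ATPase of Eg5 2–386 at 1.0 µM, pyruvate kinase/lactate dehydrogenase-coupled assay, room temperature, duplicate, 2.5% DMSO; top concentration 500 µM. Acetylated analogues alternatively preincubated (2 mM) 12 h at 37 °C in DMEM + 10% FBS before basal ATPase measurement.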

## O=C1CCCC2=C1C(c1cccc(O)c1)NC(=S)N2 (stereo unspecified)
  IC50: 2000 nM
